1 compound from publication PMC10703812, “Understanding the molecular mechanisms of odorant binding and activation of the human OR52 family” (Nature Communications, 2023) can be followed below.

Several values for one entry are separate records, joined by “and”; a condition that tells them apart may be missing. Equal entries are not always repeated.

The subject of the test is OR52cs R265A. Description: CRE luciferase assay in Hana3A cells, mutant. It is filed as cell-based, human. Conditions: 100 µM carboxylic acid; Fig.S7a, single experiments. On the procedure:
For cAMP assay, CRE luciferase assay, and surface ELISA, the full-length OR52cs construct was cloned into the pcDNA3.1 vector. The Lucy signal sequence and FLAG peptide sequence were added to the N-terminus. Mutant constructs were generated by site-directed mutagenesis. For BRET assay, eYFP was added at the C-terminus of OR52cs with a GGGGS linker. Rluc was added to Gα for resonance partner (after L99 for Gαs, and I100 for Gαolf, respectively, with GGGGS linker back and forth).
48 h after infection, cells were treated with odorants and incubated at 37 °C for 4 h. […] All values were divided by the Renilla luciferase activity to normalize the effect of cell confluence. All data were analyzed using GraphPad Prism 9.4.1.

Turning to `CCCCCCCCCCCC(=O)O` [Dodecanoate, dodecanoate], the “relative fold (luciferase activity over DMSO)” value is 1.881 fold and 1.569 fold and 1.6524 fold and 1.516 fold.
